Assay results: ChEMBL document CHEMBL4477246, “New small molecule inhibitors of histone methyl transferase DOT1L with a nitrile as a non-traditional replacement for heavy halogen atoms” (Bioorg Med Chem Lett, 2016)
The source made the active and inactive calls. The rule behind the calls is not given here.

By UniProt entry, the sequences of proteins in these tests, tags left out. Where a name states a change or a piece, a line headed by the entry shows the natural chain unless it says otherwise.
UniProt Q9H5I1: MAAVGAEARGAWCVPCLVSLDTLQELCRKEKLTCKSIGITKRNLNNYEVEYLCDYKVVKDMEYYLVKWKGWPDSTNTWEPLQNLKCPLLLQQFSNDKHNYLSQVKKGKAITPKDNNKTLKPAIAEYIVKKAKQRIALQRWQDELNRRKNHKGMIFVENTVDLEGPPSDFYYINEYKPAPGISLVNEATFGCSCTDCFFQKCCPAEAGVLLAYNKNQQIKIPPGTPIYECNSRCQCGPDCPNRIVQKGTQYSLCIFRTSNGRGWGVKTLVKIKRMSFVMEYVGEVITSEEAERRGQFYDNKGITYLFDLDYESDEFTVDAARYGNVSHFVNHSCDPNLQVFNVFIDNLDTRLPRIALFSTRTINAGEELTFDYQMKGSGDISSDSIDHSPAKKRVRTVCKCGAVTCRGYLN
UniProt Q15910, whole entry, looked up: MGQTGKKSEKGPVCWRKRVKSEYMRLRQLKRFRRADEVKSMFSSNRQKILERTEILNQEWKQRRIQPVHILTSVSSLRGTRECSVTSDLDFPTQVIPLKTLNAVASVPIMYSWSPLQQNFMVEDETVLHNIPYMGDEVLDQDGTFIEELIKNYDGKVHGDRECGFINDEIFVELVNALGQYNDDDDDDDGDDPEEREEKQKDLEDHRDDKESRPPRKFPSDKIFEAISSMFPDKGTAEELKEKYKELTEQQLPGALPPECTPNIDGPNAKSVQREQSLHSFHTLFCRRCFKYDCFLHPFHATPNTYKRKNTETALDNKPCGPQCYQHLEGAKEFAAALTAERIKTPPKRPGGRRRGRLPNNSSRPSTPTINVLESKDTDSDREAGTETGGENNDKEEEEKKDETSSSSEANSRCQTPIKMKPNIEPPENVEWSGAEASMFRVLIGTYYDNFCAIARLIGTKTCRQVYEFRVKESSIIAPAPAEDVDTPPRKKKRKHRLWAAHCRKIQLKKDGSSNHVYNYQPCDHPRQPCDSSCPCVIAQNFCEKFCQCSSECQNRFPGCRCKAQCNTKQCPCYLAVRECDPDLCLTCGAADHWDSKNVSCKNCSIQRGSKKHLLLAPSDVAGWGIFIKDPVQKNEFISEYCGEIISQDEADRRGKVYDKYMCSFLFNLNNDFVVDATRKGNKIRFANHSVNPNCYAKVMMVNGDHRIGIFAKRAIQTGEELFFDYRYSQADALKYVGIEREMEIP

Assays:
[1] = target: T1, Histone-lysine N-methyltransferase SETD7 (Homo sapiens) (UniProt Q8WTS6); experiment: Inhibition of SETD7 (unknown origin) up to 100 uM
T1 sequence (whole entry): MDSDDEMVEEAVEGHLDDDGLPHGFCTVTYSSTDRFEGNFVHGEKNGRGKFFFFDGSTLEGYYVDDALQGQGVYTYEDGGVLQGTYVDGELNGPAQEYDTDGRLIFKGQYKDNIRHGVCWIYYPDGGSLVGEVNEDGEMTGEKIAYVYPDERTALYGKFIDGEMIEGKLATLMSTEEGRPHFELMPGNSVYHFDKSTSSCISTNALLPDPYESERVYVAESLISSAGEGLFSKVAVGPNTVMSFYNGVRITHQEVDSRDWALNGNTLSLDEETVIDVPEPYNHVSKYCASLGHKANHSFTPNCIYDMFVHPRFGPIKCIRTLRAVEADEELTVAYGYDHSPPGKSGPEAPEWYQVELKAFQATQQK

[2] = target: Histone-lysine N-methyltransferase SUV39H2 (Homo sapiens, UniProt Q9H5I1); experiment: Inhibition of SUV39H2 (unknown origin) up to 100 uM
[3] = target: Histone-lysine N-methyltransferase EZH2 (Homo sapiens, UniProt Q15910); experiment: Inhibition of EZH2 (unknown origin) up to 100 uM

inhibition [1]: inactive | inhibition [2]: inactive | inhibition [3]: inactive
SMILES: N#Cc1cn([C@@H]2O[C@H](CSCC[C@H](N)C(=O)O)[C@@H](O)[C@H]2O)c2ncnc(N)c12
